## Antibody variant affinities, Ab-14 heavy chain, assay 1

Data: MIT Lincoln Laboratory AlphaSeq set, Engelhart et al. 2022, doi:10.1038/s41597-022-01779-4, as distributed in FLAb.

Binding partner: SARS-CoV-2 spike HR2 peptide, sequence PDVDLGDISGINAS.

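Phage display of a naive human antibody library on the peptide gave the parent. AAYL49 was designed without a model: most single CDR substitutions and a random sample of double and triple ones. The assay is AlphaSeq: two haploid yeast populations carry antibody and antigen on their surface. After mating in shaken culture at 30 °C for 16 h, diploids were selected and their barcode pairs sequenced. Each replicate has its own calibration line, from reference interactions of the BCL2 family. Each pool was mated in three replicate cultures.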

Each scFv is VH, the linker GGGGSGGGGSGGGGS, VL, as in the parent Ab-14, and differs from it in the CDRs of the heavy chain only.
VH: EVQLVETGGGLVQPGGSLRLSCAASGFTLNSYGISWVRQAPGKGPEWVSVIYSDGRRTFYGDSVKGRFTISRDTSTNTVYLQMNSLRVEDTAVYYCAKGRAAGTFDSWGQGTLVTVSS
VL: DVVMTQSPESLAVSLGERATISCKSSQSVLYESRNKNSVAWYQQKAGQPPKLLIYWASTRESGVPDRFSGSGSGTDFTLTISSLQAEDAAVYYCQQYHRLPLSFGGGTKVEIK

Variants are written as CDR1, CDR2 and CDR3 of the heavy chain (limits as in the source). Parent: GFTLNSYGIS, VIYSDGRRTFYGDSVK, GRAAGTFDS. Numbers give log10(Kd / nM), so 0 is 1 nM and 3 is 1 µM. Smaller is tighter. A mean of the replicates is given; it leaves out those without a signal. A pair that was not seen in that replicate is written "n.d."; this usually means weak binding, but a binder can also be missed.

CDR-H1	CDR-H2	CDR-H3	log10 Kd, replicates	mean log10 Kd (nM)	control signals
GFTLNSRGIG	VIYSDGRRTFYGHSVK	GRAAGTFDS	n.d. n.d. n.d.	n.d.	4/9 (3.82)
GFTLNSYQIM	VIYSDGWRTFYGDSVK	GRAAGTFDS	n.d. n.d. n.d.	n.d.	1/9 (3.88)
GFTLNSYGMS	VIYSDGRVTFYGDSVK	GRAAGTFDP	3.25 n.d. n.d.	3.25	1/9 (3.43)
IFTLNSYGIS	VIYSDGRRTFYGDSVK	GRAAITFDS	n.d. n.d. n.d.	n.d.	1/9 (3.77)
GFTLNMYGIS	VIYSDGRRTFYGDSVM	KRAAGTFDS	n.d. n.d. n.d.	n.d.	0/9
GFTLKSYGIS	VIYSDGRRTFYGDSTK	ERAAGTFDS	n.d. n.d. n.d.	n.d.	0/9
GFTLNSYGIS	VIYSDGRRTFGGDSVK	GRAAGTFDS	n.d. 3.34 n.d.	3.34	0/9
GFTLNSYGIS	VIYSDGRRTFYGYSVK	GRGQGTFDS	n.d. n.d. 5.17	5.17	1/9 (4.69)
RFTLESYGIS	VIYSDGRRTFYGDSVK	GRAAGTDDS	0.60 0.70 0.48	0.59	0/9
GFTLNSYGIS	VITSDGRRTFSGDSVK	GRGAGTFDS	n.d. n.d. n.d.	n.d.	2/9 (3.97)
GFQLNSYHIS	IIYSDGRRTFYGDSVK	GRAAGTFDS	n.d. n.d. 5.40	5.40	1/9 (4.41)
GQTLNSYGIS	TIYSDYRRTFYGDSVK	GRAAGTFDS	n.d. 3.53 n.d.	3.53	0/9
GFTLKSYGIS	VIYSDGRRTFYGDSVK	LRAAGTFVS	n.d. n.d. n.d.	n.d.	0/9
GFTLNSFGIS	VIYSDGCRTFYGDSVK	YRAAGTFDS	n.d. n.d. n.d.	n.d.	2/9 (4.25)
GFTLNSYGIS	VIYSDGRRTFYGDSVK	GRHAGTFLT	1.66 1.54 1.67	1.62	0/9
GFTLNSYGIS	VIYSDGRRTFYGDSVK	GRLAGTRKS	n.d. n.d. n.d.	n.d.	0/9
GFTLVRYGIS	VIYADGRRTFYGDSVK	GRAAGTFDS	1.50 1.64 1.79	1.65	2/9 (3.99)
GFTLNSYGIS	VIPSDGRRTFYGDSVK	GWAAGTFDS	n.d. n.d. n.d.	n.d.	0/9
GFTLNSYGIS	LIYSDGRRTFYGDSVK	GRAAGFFVS	3.13 4.61 4.11	3.95	2/9 (3.71)
GFTLNSYGIS	VIVSYGRETFYGDSVK	GRAAGTFDS	n.d. n.d. n.d.	n.d.	0/9
GLTLNSYGIS	VIYSDGNRTFYGDAVK	GRAAGTFDS	3.26 3.01 n.d.	3.14	0/9
GFTLNSYGIS	VICMDGRRTFYGDSVK	GRAAGTFDS	n.d. n.d. n.d.	n.d.	1/9 (5.13)
GFTLNSYQIS	VIYSDGRRTFYGDSVK	GRARGHFDS	n.d. n.d. n.d.	n.d.	0/9
GFTRNSYGIS	VIYSDGRRTFYGDSVK	GRAAGTFDS	n.d. 3.46 n.d.	3.46	0/9
GFTLNSYGIS	AIYSDGRNTFYGDDVK	GRAAGTFDS	2.95 n.d. n.d.	2.95	3/9 (3.72)
GHTLNSYGIS	VIYSDGRVTFYGDSVC	GRAAGTFDS	n.d. n.d. n.d.	n.d.	3/9 (4.30)
GFTLNSYGIC	VRYSDGSRTFYGDSVK	GRAAGTFDS	n.d. n.d. 4.25	4.25	1/9 (4.41)
GFTLNSYGIS	VIYPDGRRTFYGDSVA	GRIAGTFDS	0.94 1.16 1.08	1.06	0/9
GFTLNSYGIS	YIYSDGRRTFYGDTVQ	GRAAGTFDS	n.d. n.d. n.d.	n.d.	1/9 (4.37)
GFTLASYGGN	VIYSDGRRTFYGDSVK	GRAAGTFDS	n.d. n.d. n.d.	n.d.	0/9
GFTLDSYGIS	VIYSDGRRTEYGHSVK	GRAAGTFDS	n.d. n.d. n.d.	n.d.	2/9 (2.26)
GFTLNSYGIS	CIYSDGRRTFYGDLVH	GRAAGTFDS	n.d. n.d. n.d.	n.d.	0/9
IFTLNSYGIS	VIYSDGRRTFYGDSVK	GRAASTFDS	n.d. n.d. n.d.	n.d.	0/9
GFTLNSYGIV	VIYSDGRRVFYGDSVK	GRAHGTFDS	n.d. 2.04 n.d.	2.04	1/9 (3.98)

The last 5 entries again:

CDR-H1	CDR-H2	CDR-H3	log10 Kd, replicates	mean log10 Kd (nM)	control signals
GFTLASYGGN	VIYSDGRRTFYGDSVK	GRAAGTFDS	n.d. n.d. n.d.	n.d.	0/9
GFTLDSYGIS	VIYSDGRRTEYGHSVK	GRAAGTFDS	n.d. n.d. n.d.	n.d.	2/9 (2.26)
GFTLNSYGIS	CIYSDGRRTFYGDLVH	GRAAGTFDS	n.d. n.d. n.d.	n.d.	0/9
IFTLNSYGIS	VIYSDGRRTFYGDSVK	GRAASTFDS	n.d. n.d. n.d.	n.d.	0/9
GFTLNSYGIV	VIYSDGRRVFYGDSVK	GRAHGTFDS	n.d. 2.04 n.d.	2.04	1/9 (3.98)

Background: pairings of library AAYL49 with three empty control strains gave a value in 15% of cases (median 4.06, 5th percentile 2.83). Values in that range, when seen in few replicates, are hard to tell from nonspecific mating. For each scFv, signals with the empty controls are counted beside the result, with their mean in brackets.